The values below come from patent US11691963B2, “6-heteroaryloxy benzimidazoles and azabenzimidazoles as JAK2 inhibitors” (Ajax Therapeutics, Inc., priority 2020, dated 2023).

Protein sequences, listed by entry. Tags and fused reporters are not part of them. Residues count along the entry.
UniProt O60674, 849-1124 Y1007F/Y1008F: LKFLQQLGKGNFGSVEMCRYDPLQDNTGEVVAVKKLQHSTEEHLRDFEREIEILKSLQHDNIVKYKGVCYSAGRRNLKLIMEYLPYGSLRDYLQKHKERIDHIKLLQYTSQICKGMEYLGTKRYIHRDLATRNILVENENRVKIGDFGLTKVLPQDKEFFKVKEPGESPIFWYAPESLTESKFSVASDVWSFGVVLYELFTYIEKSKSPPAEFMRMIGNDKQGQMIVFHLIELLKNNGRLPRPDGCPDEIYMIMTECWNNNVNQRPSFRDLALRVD

Where only a bound is given, the exact number is not on record here.

For the experiment, the target named is JAK2 (JH1domain-catalytic, Y1007F,Y1008F) kinase (Homo sapiens (Human), UniProt O60674, Y1007F/Y1008F). Briefly: biochemical.

As a reminder, the Kd is the constant that tells how readily two partners part at equilibrium. Turning to `COCCN1CC[C@@H](n2nc(Nc3nc4ncc(Oc5ccnc(NC(=O)C6CC6)c5)cc4n3C)cc2C(C)(C)C)C1` [Example I-174, (R)—N-(4-((2-((5-(tert-butyl)-1-(1-(2-methoxyethyl)pyrrolidin-3-yl)-1H-pyrazol-3-yl)amino)-1-methyl-1H-imidazo[4,5-b]pyridin-6-yl)oxy)pyridin-2-yl)cyclopropanecarboxamide], the Kd is 50 to 1000 nM.
With `CC(=O)Nc1cc(Oc2ccc3nc(Nc4cc5c(c(C(F)(F)F)c4)C(C)(C)C(=O)N5CCO)n(C)c3c2)ccn1` [Example I-48, N-(4-((2-((1-(2-hydroxyethyl)-3,3-dimethyl-2-oxo-4-(trifluoromethyl)indolin-6-yl)amino)-1-methyl-1H-benzo[d]imidazol-6-yl)oxy)pyridin-2-yl)acetamide] the figure was 10 to 50 nM.
Next, `CC(=O)Nc1cc(Oc2cnc3nc(Nc4cc5n(n4)CCCC5(C)C)n(C)c3c2)ccn1` [Example I-104, N-(4-((2-((4,4-dimethyl-4,5,6,7-tetrahydropyrazolo[1,5-c]pyridin-2-yl)amino)-1-methyl-1H-imidazo[4,5-b]pyridin-6-yl)oxy)pyridin-2-yl)acetamide]: under 10 nM.
Next, `COc1c(Oc2ccnc(NC(=O)C3CC3)c2)cnc2nc(Nc3cc(C(C)(C)C)n(CC(C)O)n3)n(C)c12` (single isomer, unassigned) [Example I-176-a]: under 10 nM; `CC(=O)Nc1cc(Oc2cnc3nc(Nc4cc(C(C)(C)C)n(C[C@@H]5CN(C)CCO5)n4)n(C)c3c2)ccn1` [Example I-144]: 10 to 50 nM.
On to `CC(=O)Nc1cc(Oc2ccc3nc(Nc4cc(C(C)(C)C)n([C@H]5C[C@@H](O)C5)n4)n(C)c3c2)ccn1` [Example I-30, N-(4-((2-((5-(tert-butyl)-1-((1s,3s)-3-hydroxycyclobutyl)-1H-pyrazol-3-yl)amino)-1-methyl-1H-benzo[d]imidazol-6-yl)oxy)pyridin-2-yl)acetamide], for which the Kd was under 10 nM.
With `CC(=O)Nc1cc(Oc2ccc3nc(Nc4cc(C(C)(C)C)n(CC5COC5)n4)n(C)c3n2)ccn1` [Example I-101, N-(4-((2-((5-(tert-butyl)-1-(oxetan-3-ylmethyl)-1H-pyrazol-3-yl)amino)-3-methyl-3H-imidazo[4,5-b]pyridin-5-yl)oxy)pyridin-2-yl)acetamide] the figure was 50 to 1000 nM.
